# Earlier results as cited in patent US6821979B2, “Synergistic enhancement of cognitive ability” (Blanchette Rockefeller Neurosciences Institute, priority 2002, dated 2004).
# By UniProt entry, the sequences of proteins in these tests, tags left out.
# UniProt P25099, whole entry: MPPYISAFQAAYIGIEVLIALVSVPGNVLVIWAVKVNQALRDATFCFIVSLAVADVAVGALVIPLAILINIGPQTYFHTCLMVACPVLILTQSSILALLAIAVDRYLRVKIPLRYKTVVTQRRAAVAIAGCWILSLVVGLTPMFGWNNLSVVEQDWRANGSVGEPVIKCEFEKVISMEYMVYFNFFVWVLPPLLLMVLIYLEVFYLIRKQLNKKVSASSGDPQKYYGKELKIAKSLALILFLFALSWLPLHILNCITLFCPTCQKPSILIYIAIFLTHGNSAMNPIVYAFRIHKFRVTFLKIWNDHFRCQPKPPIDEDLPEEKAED
# Target: T1, adenosine A1 receptor (Rattus norvegicus, UniProt P25099)
# T1 construct: host or cells: animal in vivo and hippocampal CA1; endogenous receptor
smiles,measurement,value
CCCn1c(=O)c2[nH]c(C3CCCC3)nc2n(CCC)c1=O [DPCPX],spatial learning and functional impairment of hippocampal CA1 synaptic plasticity after hypoxia,preventable
